# Ab-91 heavy chain CDR variants: yeast mating affinities

The measurements come from Engelhart et al. 2022 (doi:10.1038/s41597-022-01779-4) through the FLAb antibody collection.

Target: peptide PDVDLGDISGINAS, taken from heptad repeat 2 (HR2) of SARS-CoV-2 spike.

Parent scFv Ab-91: VL joined to VH by a 15-residue (Gly4Ser)3 linker. Changes lie in the heavy chain CDRs alone.
VL: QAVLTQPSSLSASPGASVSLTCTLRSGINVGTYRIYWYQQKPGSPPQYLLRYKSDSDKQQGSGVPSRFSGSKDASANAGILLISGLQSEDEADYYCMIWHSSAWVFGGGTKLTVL
VH: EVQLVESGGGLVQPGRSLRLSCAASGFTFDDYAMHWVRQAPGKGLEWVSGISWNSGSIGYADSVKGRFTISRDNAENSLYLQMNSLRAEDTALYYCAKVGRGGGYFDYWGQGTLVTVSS

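Variants in AAYL51 differ from the parent at up to three CDR positions; double and triple changes were sampled at random. AlphaSeq pools MATa yeast showing the antibodies with MATalpha yeast showing the peptide. After mating in shaken culture at 30 °C for 16 h, diploids were selected and their barcode pairs sequenced. The ratio of observed to expected reads was calibrated, replicate by replicate, on BCL2-family standards whose Kd was known from biolayer interferometry. There are three technical replicates.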

Variants are written as CDR1, CDR2 and CDR3 of the heavy chain (limits as in the source). Parent: GFTFDDYAMH, GISWNSGSIGYADSVK, VGRGGGYFDY. This list gathers variants with a substitution at S63 (VH, numbered from residue 1). The Kd shown is the geometric mean over detected replicates; a lower Kd is a better binder. An entry "no signal" has no value in the source: the pair was not observed among the diploids in any replicate. This suggests poor binding but is not conclusive. Order: sorted from the lowest average up, undetected variants last. Parent in this assay: reference entry 72 nM, copy in this library 7.5 nM.

* GFTFDDYAMH | GISWNSVSIGYADIVK | VGRGGAYFDY = 4.9 nM (3 of 3 replicates)
* GFTFDDFAMH | GISTNSGSIGYADEVK | VGRGGGYFDY = 9.5 nM (3 of 3 replicates)
* GFTFDDYAMH | GISPNSGSIGYADHVK | VGRGGGWFDY = 13 nM (3 of 3 replicates)
* GFTFDDYAMH | GISWNSGSFGYADTVK | LGRGGGYFDY = 77 nM (3 of 3 replicates)
* GFTFDDYAMH | GISWNSGSIGYADAVY | VGRGTGYFDY = 290 nM (3 of 3 replicates)
* GFTFDDYAMH | GISWNSGYIGYADEVK | VGKGGGYFDY = 310 nM (3 of 3 replicates)
* GFTFDDYAMH | GISWNSGSIGYADGVK | VGDGGGYFDY = 320 nM (3 of 3 replicates)
* GFTFDDYAMH | GISWNSGSIGYADCVK | VGRCGGYFDY = 1.8 µM (2 of 3 replicates)
* GFTFDDYAKH | GISWNSGSIGYRDAVK | VGRGGGYFDY = 3.2 µM (3 of 3 replicates)
* GFTFDDYAMH | GISWNSGSIGYAMQVK | VGRGGGYFDY = 6.4 µM (3 of 3 replicates)
* GFTFDDYGMH | AISWNSGSIGYADVVK | VGRGGGYFDY = 14 µM (1 of 3 replicates)
* GFTFDDYAMH | GISWNSGYIGYADVVK | VGRGGGYFDY = 14 µM (1 of 3 replicates)
* GVTFDDYVMH | GISWNSGSIGYADWVK | VGRGGGYFDY = 18 µM (1 of 3 replicates)
* GFTFIDYAMH | GISVNSGSIGYADQVK | VGRGGGYFDY = 58 µM (1 of 3 replicates)
* GFTDDDYAQH | GISWNSGSIGYADKVK | VGRGGGYFDY = 62 µM (1 of 3 replicates)
* GFTFDDYAMH | GISWNSGSIGYADIVK | VGRGGGYFDY = 71 µM (1 of 3 replicates)
* GFTFDDYAGH | GISWNSGSIGYADWVK | VGRGDGYFDY = 74 µM (2 of 3 replicates)
* GFTFDDYAMH | GISWNSGSIGYADHVK | VGRPGGYFDY = 80 µM (1 of 3 replicates)
* GETFDDYAMH | GISWNSGSIGYADEVK | VGRGGGYFDY = 92 µM (2 of 3 replicates)
* GFTKDDYAMH | GISWNSGSIGYADPVK | VSRGGGYFDY = 94 µM (2 of 3 replicates)
* GFSFDDYAMH | GISWNSGSIGYADKVK | VGTGGGYFDY = 140 µM (3 of 3 replicates)
* GFCFDDYAMH | GISWNSGSIPYADLVK | VGRGGGYFDY = 150 µM (3 of 3 replicates)
* GFTFDDYAMH | GISWNSGSIGYADCVK | VGRGGVDFDY = 250 µM (3 of 3 replicates)
* GFSFDDYAMH | GISWNSGSSGYADPVK | VGRGGGYFDY = 400 µM (3 of 3 replicates)
* GFHFDDYAMH | GISWNSGSIGYADPTK | VGRGGGYFDY = no signal (0 of 3 replicates)
* SFTFDDYAMH | GIRWNSGSIGYADRVK | VGRGGGYFDY = no signal (0 of 3 replicates)
* FFTFDDYAMH | GISWNSGSIGYADEVK | VGRGGGYFEY = no signal (0 of 3 replicates)
* GFTFDDYAMR | GISWNSGSIGYADIVK | VGRGGGYFDQ = no signal (0 of 3 replicates)
* GFTFDDYNMH | GISWNSGSIGYADEVK | VGRGGGYKDY = no signal (0 of 3 replicates)
* GFTFDDYAMH | GFSWNSGSIYYADGVK | VGRGGGYFDY = no signal (0 of 3 replicates)
* GFTCDDYAMH | GISWNSGSIGYADPVK | VGNGGGYFDY = no signal (0 of 3 replicates)
* GFTFDDYAMV | GISWNSGSIGYADYVK | VGRGGGWFDY = no signal (0 of 3 replicates)
* GFTFDDYAMH | GISWNSGSIGYLDWVK | VGNGGGYFDY = no signal (0 of 3 replicates)

Top 3 of the variants detected in all replicates, tightest first:

| CDR-H1 | CDR-H2 | CDR-H3 | Kd (apparent) | detected |
|---|---|---|---|---|
| GFTFDDYAMH | GISWNSVSIGYADIVK | VGRGGAYFDY | 4.9 nM | 3 of 3 |
| GFTFDDFAMH | GISTNSGSIGYADEVK | VGRGGGYFDY | 9.5 nM | 3 of 3 |
| GFTFDDYAMH | GISPNSGSIGYADHVK | VGRGGGWFDY | 13 nM | 3 of 3 |

As a blank, each scFv also met three strains without target: over library AAYL51, 21% of these pairings were detected, typically at 34 µM and seldom below 1.8 µM.